# Literature values, collected in PMC11219766 (Nature Communications, 2024).
# Protein sequences, listed by entry. Tags and fused reporters are not part of them. Lines headed by an entry give the natural chain unless they say otherwise; changes in a name come on top.
# UniProt Q99828: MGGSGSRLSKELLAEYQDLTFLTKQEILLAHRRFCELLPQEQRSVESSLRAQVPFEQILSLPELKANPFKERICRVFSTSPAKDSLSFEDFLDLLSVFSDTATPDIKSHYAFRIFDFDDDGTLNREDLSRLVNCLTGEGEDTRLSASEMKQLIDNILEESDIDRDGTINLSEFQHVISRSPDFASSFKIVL
# Target: CIB1 (Homo sapiens, UniProt Q99828)
# Conditions: read-out: CIB1 IC50; cited from earlier work
substance,measurement,value
-S-Ac-YTTPIWNIRFC-NH2 [UNC10245204],IC50,15 nM
